Results as given in paper PMC4227303.

Tested on: N=C(N)NCCCCN
Experiment: purified protein
Details: Tris pH 9, agmatine sulfate 100 μM to 30 mM

**Q.** What does the source list for “Agu2A (Pseudomonas aeruginosa UCBPP-PA14)”?
**A.** Km (37 °C): 136 ± 40 µM; kcat (37 °C): 14.12 ± 0.49 s⁻¹

**Q.** With “Agu2A′ (Pseudomonas aeruginosa UCBPP-PA14)” as the substance, how does the Km (25 °C) read?
**A.** 2624 ± 1125 µM

**Q.** And the kcat (25 °C)?
**A.** 33.27 ± 4.22 s⁻¹
